# AlphaSeq binding of Ab-14 light chain variants to a spike HR2 peptide

Source: Li et al. 2023 (doi:10.1038/s41467-023-39022-2), MIT Lincoln Laboratory and A-Alpha Bio; data file from the FLAb repository.

The target is the same throughout: PDVDLGDISGINAS, from the HR2 region of SARS-CoV-2 spike.

Parent: Ab-14, a human scFv built as VH, three GGGGS repeats, VL. Only the CDRs of the light chain vary.
VH: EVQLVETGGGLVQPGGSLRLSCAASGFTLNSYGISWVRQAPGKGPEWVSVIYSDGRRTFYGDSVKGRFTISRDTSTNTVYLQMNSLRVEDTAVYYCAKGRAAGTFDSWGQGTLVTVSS
VL: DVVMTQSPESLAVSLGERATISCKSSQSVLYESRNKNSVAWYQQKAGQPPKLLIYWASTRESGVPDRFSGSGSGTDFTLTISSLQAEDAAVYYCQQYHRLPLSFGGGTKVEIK

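Designed CDR sequences, proposed from the first random library and measured here. Group labels follow the data file (En: ensemble of fine-tuned language models; GP: Gaussian process model; HC: hill climbing; Gen: genetic algorithm; Gibbs: Gibbs sampling; a sequence that several methods proposed may carry one label only). Affinity was read by AlphaSeq, a pooled yeast mating assay with surface-displayed partners. Mating (16 h, 30 °C) was followed by selection of diploids and sequencing of their barcodes. Each replicate has its own calibration line, from reference interactions of the BCL2 family. Mating was done six times.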

Each variant is given by its three light chain CDRs, as the data file delimits them; those of the parent are KSSQSVLYESRNKNSVA, WASTRES, QQYHRLPLS. Variants here have more than six changes. The read-out is the apparent dissociation constant on a log10 scale (nM): the lower, the stronger. A mean of the replicates is given; it leaves out those without a signal. "ND" marks a missing value. The strain was present, yet no cells mated with the target were sequenced in that replicate, which points to weak or no binding. Order: sorted from the lowest average up, undetected variants last. The authors averaged sequences with at least three values out of six and counted those with two or fewer as poor binders. The parent sequence was in this pool as ten entries: three were never detected, three once, and four in most replicates, with averages from 0.34 to 2.37. A sequence measured in both rounds can read differently, since the two assays cover different ranges. Three control strains display no target. For all light chain designs, 4% of the pairings with them gave a signal, with a median of 2.64 and one signal in twenty below 1.59, so weak values seen in few replicates may be background.

With KFSWSNPYETRNKNSVA / EASQREE / QQYHRLPLS [GP_Gibbs] the result was 0.18, -0.20, -0.44, -0.25, -0.37, 0.07 (mean -0.17). Variant KLTMITGLEKVQGNNVA / EMETREK / QQYNRLPLS [En_Gen] gave 0.24, 0.07, -0.18, -0.20, -0.10, -0.06 (mean -0.04). For KLPQEVWYQSRMKNSVA / DASQRES / QQYHRLPLS [GP_Gibbs], the assay gave -0.04, 0.14, 0.04, 0.12, 0.13, 0.32 (mean 0.12). Variant KLVNFMNRGTHHTSNIA / DAVNRID / QQYYRLPLA [En_Gen] showed 0.45, 0.65, -0.06, -0.16, 0.13, 0.35 (mean 0.23). Variant GLSDQITEQIAHANSIA / DRDERDV / QQYSRLPLI [En_Gibbs] gave 0.53, 0.39, 0.42, -0.16, 0.09, 0.15 (mean 0.24). Variant HVPNYPENFRSAKDNIA / DQSATTS / QQYDRLPLA [En_Gibbs] showed 0.46, 0.24, 0.46, 0.25, 0.49, 0.38 (mean 0.38). With IVSQLMLWGMKAKNSIA / EAVTRVN / QQYDRLPLF [En_Gen] the result was 0.67, 0.40, 0.31, -0.05, 0.35, 0.92 (mean 0.43). With KLQNSMLYESRNDNSVA / DASKRES / QAYHRLPLS [GP_Gibbs] the result was 0.53, 0.42, 0.58, 0.38, 0.65, 0.60 (mean 0.53).

With KMAMALSPEFGTYHGVA / DADHRMH / QQYNRLPLS [En_Gibbs] the result was 0.78, 0.47, 0.32, 0.48, 0.62, 0.62 (mean 0.55). For KLDGSDNYESRNKNSVA / EGSTRES / QAYHRLPLS [GP_Gibbs], the assay gave 0.09, 2.06, 0.11, 0.20, 0.21, 0.99 (mean 0.61). Variant KISQMVRVGSTKGNSIA / EEETRAD / QQYHRLPLS [En_Gen] gave 0.90, 0.80, 0.62, 0.46, 0.23, 0.79 (mean 0.63). Variant KFDQEVWYESRNKNSVA / MASQRCS / QQYHRLPLS [GP_Gibbs] gave 0.24, 0.79, 1.18, 0.84, 0.49, 0.43 (mean 0.66). With MFSQSVMYGSFYRNSVA / QTSTREP / QQYDRLPLS [En_HC] the result was 0.72, 0.73, 0.97, 0.78, 0.61, 0.91 (mean 0.79). Variant KFKAMLNMWARDIHNVA / HADERNV / QQYSRLPLG [En_Gibbs] showed 0.74, 1.11, 0.59, 1.05, 0.33, 0.93 (mean 0.79). For KIGMVTNGISRNKNSVA / EQSTRED / QQYNRLPLS [En_HC], the assay gave 1.18, 0.41, 0.99, 0.77, 0.90, 0.61 (mean 0.81). Variant KLSMVTGHQLMSKDNVA / EMVTREN / QQYNRLPLS [En_Gen] gave 0.60, 0.76, 0.52, 0.42, 0.89, 1.73 (mean 0.82).

For TIGAATLEESRNKNSVA / EMSLREN / QSYNRLPLS [En_HC], the assay gave 1.38, 0.90, 0.84, 0.72, 0.74, 0.76 (mean 0.89). Variant MITGAMELEWSNKNPVA / SATDRAP / QSYFRLPLM [En_Gibbs] showed 2.08, -0.03, 1.09, 0.65, 0.35, 1.22 (mean 0.89). Variant HIDQFTSYDNGEDRAIA / DVTIKDY / QQYARLPLL [En_Gibbs] showed 0.63, 1.08, 0.84, 0.92, 0.82, 1.08 (mean 0.89). Variant KLYEMSYELSGKTHSVA / DNSTRGD / QQYFRLPLQ [En_Gen] gave 0.63, 1.08, 1.29, 0.78, 0.71, 1.24 (mean 0.95). With KVDISQLLESRNKNSVA / NASLRCS / QQYHRLPLS [GP_Gibbs] the result was 1.22, 0.97, 0.92, 0.75, 0.95, 0.99 (mean 0.97). Variant KIGMTLNQMMHKKNNVA / DLVERAN / QQYHRLPLS [En_Gen] showed 1.52, 1.04, 0.72, 0.64, 0.96, 1.02 (mean 0.98). With KLQTLTYTANIGESSVA / DVNVHVD / QQYFRLPLS [En_Gibbs] the result was ND, 1.17, 1.55, 0.37, ND, ND (mean 1.03). Variant KMRVSLLQGIYRADSIA / STDIRVL / QQYYHLPLA [En_Gibbs] gave 1.18, 1.14, 1.01, 1.20, 1.14, 1.14 (mean 1.14).

With RMNKFMSEITEARNSIA / GAEHLAQ / QSYHRLPLS [En_Gibbs] the result was 1.19, 0.84, 1.73, 1.28, 0.92, 0.97 (mean 1.16). Variant KLSLSMSYSWEGTRHIA / NGSNRCH / QQYHRLPLI [En_Gibbs] showed 1.41, 1.41, 1.04, 1.62, 1.34, 1.55 (mean 1.40). Variant MISDLTMYGSRNVSSVA / DLSTRGS / QQYDRLPLS [En_HC] showed 1.48, 1.34, 1.81, 1.26, 1.47, 1.55 (mean 1.48). For MMSQVTGLGQRHRNNVA / QTSMREN / QQYDRLPLI [En_Gen], the assay gave 1.18, 1.71, 1.67, 1.52, 1.60, 1.51 (mean 1.53). With HISQSVGMTSFNKNSVA / ENSTREK / QQYDRLPLS [En_HC] the result was ND, ND, ND, ND, 1.60, ND. Variant MISQLMNMGQFAINSVA / QASLRCN / QQYDRLPLT [En_Gen] showed 1.66, 2.34, 0.99, 1.25, 2.10, 2.32 (mean 1.78). Variant MLSQMWAIGMKVSNSVA / QVSTRFE / QQYDRLPLE [En_Gen] showed ND, 2.23, 2.16, 1.43, 1.85, 2.09 (mean 1.95). Variant KISQMIRVGSTASNSIA / EEQTRAK / QQYHRLPLS [En_Gen] gave ND, 2.59, ND, 1.88, 2.54, 1.55 (mean 2.14).

For IVSQLMIWGMHVKNSIA / EAQTRIN / QQYDRLPLF [En_Gen], the assay gave ND, ND, 2.33, 2.35, ND, ND (mean 2.34). Variant IVSQLMLWGMHASNSIA / EAQTRLN / QQYDRLPLF [En_Gen] gave 2.90, ND, ND, ND, ND, 2.29 (mean 2.60). For TISQSFLMENQFKNSVA / QASTREE / QCYDRLPLS [En_HC], the assay gave ND, ND, ND, 3.53, ND, 4.30 (mean 3.92). With SIRQVTDDYQATHDAIA / DASQIEP / QQYSWLPLS [En_Gibbs] the result was ND, ND, ND, ND, ND, ND.

For reference, 3 entries of the list once more:

The variant KVDISQLLESRNKNSVA / NASLRCS / QQYHRLPLS [GP_Gibbs] gave 1.22, 0.97, 0.92, 0.75, 0.95, 0.99 (mean 0.97).
The variant KLPQEVWYQSRMKNSVA / DASQRES / QQYHRLPLS [GP_Gibbs] gave -0.04, 0.14, 0.04, 0.12, 0.13, 0.32 (mean 0.12).
The variant KISQMVRVGSTKGNSIA / EEETRAD / QQYHRLPLS [En_Gen] gave 0.90, 0.80, 0.62, 0.46, 0.23, 0.79 (mean 0.63).